Data: ChEMBL document CHEMBL4414612, “Synthesis and Pharmacological Evaluation of 1-Phenyl-3-Thiophenylurea Derivatives as Cannabinoid Type-1 Receptor Allosteric Modulators” (J Med Chem, 2019)
pIC50: −log10 of the molar value.

Amino acid sequences for entries named in this document (tags omitted).
UniProt P21554, whole entry: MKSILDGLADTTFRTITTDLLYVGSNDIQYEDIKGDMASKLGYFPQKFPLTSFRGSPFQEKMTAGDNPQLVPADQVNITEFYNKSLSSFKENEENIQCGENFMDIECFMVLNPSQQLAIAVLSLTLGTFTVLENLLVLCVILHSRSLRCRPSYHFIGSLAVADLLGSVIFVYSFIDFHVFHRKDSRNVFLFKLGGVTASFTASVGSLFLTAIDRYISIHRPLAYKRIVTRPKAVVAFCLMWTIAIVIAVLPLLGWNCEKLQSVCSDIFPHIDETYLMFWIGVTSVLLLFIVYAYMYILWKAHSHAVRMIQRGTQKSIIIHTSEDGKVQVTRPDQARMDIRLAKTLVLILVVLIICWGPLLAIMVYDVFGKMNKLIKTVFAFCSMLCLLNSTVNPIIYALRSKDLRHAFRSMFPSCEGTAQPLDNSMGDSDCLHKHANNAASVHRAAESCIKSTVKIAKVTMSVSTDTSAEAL

Key:
Cannabinoid receptor 1 [1] = molecular target: T1, Cannabinoid receptor 1 (Homo sapiens, UniProt P21554); experiment: Agonist activity at human CB1 receptor expressed in CHO-RD-HGA16 cells co-expressing Galpha16 assessed as suppression stimulation of calcium mobilization incubated for 45 mins by Calcium 5 dye based FLIPR assay relative to CP55,940; type: functional, cell-based
Cannabinoid receptor 1 [2] = molecular target: T1, Cannabinoid receptor 1; experiment: Allosteric modulator activity at human CB1 receptor expressed in HEK293 cell membranes assessed as suppression of 100 nM CP55,940-induced [35S]GTPgammaS binding incubated for 60 mins by scintillation counting method; type: functional
Cannabinoid receptor 1 [3] = molecular target: T1, Cannabinoid receptor 1; experiment: Allosteric modulator activity at human CB1 receptor expressed in HEK293 cells assessed as suppression of 100 nM CP55,940-induced reduction in forskolin-stimulated cAMP production pre-incubated for 25 mins before forskolin and CP55,940 addition and measured after 22 mins by BRET CAMYEL cAMP assay; type: functional, cell-based

Structure (SMILES) | Emax (Cannabinoid receptor 1 [1]) [%] | further results
O=C(Nc1ccc(Cl)cc1)Nc1ccc(-c2cc(Cl)cc(Cl)c2)s1 | < 30 | –
O=C(Nc1ccc(Cl)cc1)Nc1ccc(-c2cccc(Cl)c2)s1 | < 30 | –
O=C(Nc1ccc(Cl)cc1)Nc1ccc(-c2ccccc2Cl)s1 | < 30 | –
O=C(Nc1ccc(Cl)cc1)N[C@@H]1CCCN(c2ccccc2)C1 | < 30 | –
O=C(Nc1ccc(Cl)cc1)Nc1cccc(-c2ccccc2)n1 | < 30 | –
O=C(Nc1ccc(Cl)cc1)Nc1csc(-c2ccccc2)c1 | < 30 | –
O=C(Nc1ccc(Cl)cc1)Nc1ccc(-c2cccnc2)s1 | < 30 | –
O=C(Nc1ccc(Cl)cc1)Nc1ccc(-c2ccc(Cl)cc2)s1 | < 30 | –
COc1ccc(-c2ccc(NC(=O)Nc3ccc(Cl)cc3)s2)cc1 | < 30 | –
O=C(Nc1ccc(Cl)cc1)Nc1cc(-c2ccccc2)ccn1 | < 30 | –
CC(=O)c1cccc(-c2ccc(NC(=O)Nc3ccc(Cl)cc3)s2)c1 | < 30 | –
O=C(Nc1ccc(Cl)cc1)Nc1ccc(-c2cccc(F)c2)s1 | < 30 | –
O=C(Nc1ccc(Cl)cc1)Nc1cncc(-c2ccccc2)c1 | < 30 | –
COc1ccc(-c2cccc(N3CCCC3)n2)cc1NC(=O)Nc1ccc(Cl)cc1 | < 30 | –
COc1ccccc1-c1ccc(NC(=O)Nc2ccc(Cl)cc2)s1 | < 30 | –
O=C(Nc1ccc(Cl)cc1)Nc1ccc(-c2ccc(Cl)c(Cl)c2)s1 | < 30 | –
Cc1cccc(-c2ccc(NC(=O)Nc3ccc(Cl)cc3)s2)c1 | < 30 | –
O=C(Nc1ccc(Cl)cc1)Nc1ccnc(-c2ccccc2)c1 | < 30 | –
O=C(Nc1ccc(Cl)cc1)Nc1ccc(-c2ccncc2)s1 | < 30 | –
CN(C)c1cccc(-c2ccc(NC(=O)Nc3ccc(Cl)cc3)s2)c1 | < 30 | –
O=C(Nc1ccc(Cl)cc1)Nc1ccc(-c2ccc(F)cc2F)s1 | < 30 | –
O=C(Nc1ccc(Cl)cc1)Nc1ccc(-c2ccc(F)cc2)s1 | < 30 | –
CS(=O)(=O)c1cccc(-c2ccc(NC(=O)Nc3ccc(Cl)cc3)s2)c1 | < 30 | –
O=C(Nc1ccc(Cl)cc1)Nc1ccc(-c2ccccc2)s1 | < 30 | –
COc1cccc(-c2ccc(NC(=O)Nc3ccc(Cl)cc3)s2)c1 | < 30 | –
O=C(Nc1ccc(Cl)cc1)Nc1cc(-c2ccccc2)cs1 | < 30 | –
O=C(Nc1ccc(Cl)cc1)Nc1ncc(-c2ccccc2)s1 | < 30 | –
COC(=O)c1cccc(-c2ccc(NC(=O)Nc3ccc(Cl)cc3)s2)c1 | < 30 | –
O=C(Nc1ccc(Cl)cc1)Nc1cccc(-c2cccc(N3CCCC3)n2)c1 | – | pIC50 (Cannabinoid receptor 1 [2]): 6.34; pIC50 (Cannabinoid receptor 1 [3]): 5.58
